Data: patent US20140234345A1, “NOVEL ANTI-CANCER ISOCARBOSTYRIL ALKALOID CONJUGATES” (priority 2011, published 2014)

Tested on: Healthy PBMC (Peripheral Blood Mononuclear Cells)
Assay: Cell viability of healthy PBMC
Conditions: PBMC tests compared to tumour cell line tests
Experimental: All cell lines were plated in black, tissue culture treated, 96 well plates at a cell density of 1×10^5 celis/mL (1×10^4 cells/well). Cells were allowed 24 h to attach to the plate prior to being dosed with drug. […] Cells were allowed to incubate for 48 or 72 h. Following incubation cells were stained with Alamar Blue such that the final concentration of Alamar Blue in the test well was 10%. Cells were stained for 2 h and then fluorescence was measured on a Molecular Devices Analyst GT multimode plate reader using an excitation filter of 530/25 nm and an emission filter of 580/10 nm and a 561 nm dichroic mirror. Cell viability was expressed as a percentage of untreated control cells. Data are expressed as mean±standard error and are the average of four independent cell preparations.
Healthy PBMC (Peripheral Blood Mononuclear Cells) were treated similarly to the above tumour cell line tests.

O=C1N[C@@H]2C(=C[C@H](O)[C@@H](O)[C@H]2O)c2cc3c(c(O)c21)OCO3 [narciclasine, reference compound]
selectivity for cancer cells over healthy cells: selectively kill cancer cells at a much higher percentage than healthy cells
